One substance from patent US20080312301A1, “Substituted N-Benzo[D]Isoxazol-3-Yl-Amine Compounds as Inhibitors of Mglur5, Serotonin (5-Ht) and Noradrenaline Receptors, and Uses Thereof” (Gruenenthal GmbH, priority 2005, published 2008) can be followed below.

Sequences of proteins named here, by UniProt entry; tags and fusion partners are left off. Residues count along the entry.
UniProt I3LUI7, 19-1212: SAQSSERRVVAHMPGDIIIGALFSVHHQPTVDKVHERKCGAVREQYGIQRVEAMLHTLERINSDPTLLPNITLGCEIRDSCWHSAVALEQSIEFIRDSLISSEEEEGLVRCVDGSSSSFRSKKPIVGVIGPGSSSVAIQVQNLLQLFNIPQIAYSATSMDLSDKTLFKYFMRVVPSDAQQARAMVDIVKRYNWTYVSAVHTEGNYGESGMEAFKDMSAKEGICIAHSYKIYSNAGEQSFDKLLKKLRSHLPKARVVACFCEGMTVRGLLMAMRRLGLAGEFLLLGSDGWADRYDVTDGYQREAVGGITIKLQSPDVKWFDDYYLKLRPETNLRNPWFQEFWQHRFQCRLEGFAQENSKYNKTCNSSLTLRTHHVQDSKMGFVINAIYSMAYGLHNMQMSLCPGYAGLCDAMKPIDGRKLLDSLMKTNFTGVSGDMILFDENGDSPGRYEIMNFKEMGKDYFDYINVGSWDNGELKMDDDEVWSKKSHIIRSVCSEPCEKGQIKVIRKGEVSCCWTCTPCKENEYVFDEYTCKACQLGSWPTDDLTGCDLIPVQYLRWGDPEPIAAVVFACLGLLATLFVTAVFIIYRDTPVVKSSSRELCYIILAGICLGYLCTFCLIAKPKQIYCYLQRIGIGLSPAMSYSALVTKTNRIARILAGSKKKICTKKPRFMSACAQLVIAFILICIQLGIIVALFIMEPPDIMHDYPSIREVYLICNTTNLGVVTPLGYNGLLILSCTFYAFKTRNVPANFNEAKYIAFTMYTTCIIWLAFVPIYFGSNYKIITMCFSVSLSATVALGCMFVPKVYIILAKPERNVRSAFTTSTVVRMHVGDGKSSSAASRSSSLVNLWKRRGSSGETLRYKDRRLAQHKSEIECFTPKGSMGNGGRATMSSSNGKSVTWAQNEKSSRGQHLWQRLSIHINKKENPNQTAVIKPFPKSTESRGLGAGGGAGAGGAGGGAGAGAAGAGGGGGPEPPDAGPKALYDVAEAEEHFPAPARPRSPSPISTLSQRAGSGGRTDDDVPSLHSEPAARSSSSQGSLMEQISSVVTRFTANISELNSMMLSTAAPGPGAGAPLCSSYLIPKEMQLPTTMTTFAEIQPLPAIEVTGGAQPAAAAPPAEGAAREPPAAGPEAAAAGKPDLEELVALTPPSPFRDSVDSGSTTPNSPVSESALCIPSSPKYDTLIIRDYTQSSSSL

This assay has as its target T1, mGluR5 receptor (Sus scrofa, UniProt I3LUI7).
T1 construct: 450 μg of protein from brain homogenate are incubated with 5 nM^3[H]-MPEP; from tissue; host or cells: pig brain hemispheres without medulla, cerebellum and pons
Briefly: Affinity for the mGluR5 receptor: displacement of 3[H]-MPEP binding in pig brain homogenate. Conditions: 10 μM compound, 5 nM 3[H]-MPEP. How it is done:
II. Method for Determining the Affinity for the mGluR5 Receptor
In each case 450 μg of protein from brain homogenate are incubated with 5 nM^3[H]-MPEP (Tocris, order No. R1212) (MPEP=2-methyl-6-[…]) and the compounds to be investigated (10 μM in the assay) in buffer (as above) in 250 μl incubation mixtures in 96-well microtiter plates at room temperature for 60 min.
The filter plates were then dried at 55° C. for 60 min.

For the substance “cyclohexane-[4-(2,2,2-trifluoroethoxy)benzo[d]isoxazol-3-yl]carboxamide [Example 165]”, the “mGluR5 receptor inhibition of the 3[H]-MPEP binding in % (10 μM)” value was found to be 38.04%.
